scFv variants of Ab-14 (heavy chain) against a SARS-CoV-2 spike peptide

Target peptide (SARS-CoV-2 spike, HR2 region): PDVDLGDISGINAS

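Phage display of a naive human antibody library on the peptide gave the parent. The library (AAYL49) carries one to three amino acid substitutions per variant, with no insertions or deletions. The scFvs were displayed on barcoded MATa yeast, the peptide on MATalpha yeast. The frequency of each diploid, read from paired DNA barcodes, reflects how well the two displayed proteins bind. A regression on co-assayed BCL2-family reference pairs converts the normalised counts of each replicate to an apparent Kd. The assay was run in three technical replicates.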

Ab-14 is the parent antibody, in scFv form: VH, then a 15-residue (Gly4Ser)3 linker, then VL. The light chain is unchanged in all variants.
VH: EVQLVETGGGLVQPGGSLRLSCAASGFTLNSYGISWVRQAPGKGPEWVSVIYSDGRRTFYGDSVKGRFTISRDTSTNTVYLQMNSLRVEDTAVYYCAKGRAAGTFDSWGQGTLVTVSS
VL: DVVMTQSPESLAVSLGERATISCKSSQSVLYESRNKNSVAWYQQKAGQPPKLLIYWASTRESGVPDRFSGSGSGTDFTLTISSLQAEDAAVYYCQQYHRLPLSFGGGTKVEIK

Substitutions are numbered in sequence along the VH above, starting at 1 (not Kabat).
Values are log10 of the apparent Kd in nM; lower means stronger binding.
Averages over replicates are reported, and they cover detected replicates only.
"ND" marks a missing value. The strain was present, yet no cells mated with the target were sequenced in that replicate, which points to weak or no binding.
As a blank, each scFv also met three strains without target: over library AAYL49, 15% of these pairings were detected, typically at 4.06 and seldom below 2.83. Also given: how often the same scFv was detected with the empty control strains, with their mean in brackets.
Parent in this assay: reference entry 0.65, copy in this library 4.11 (one replicate of three).

changes,log10 Kd (nM) by replicate,"log10 Kd (nM), mean",signal with controls
N30K+I51L+D54W,ND ND ND,ND,0 of 9
G26L+G99K,3.05 ND ND,3.05,0 of 9
G26N+Y52G+V64G,ND ND ND,ND,0 of 9
Y52H+K65I+G99S,ND ND ND,ND,2 of 9 (3.28)
G55M+T58C+V64E,ND ND ND,ND,0 of 9
R56Y+A101C+F105Q,ND ND 4.05,4.05,1 of 9 (4.32)
I34N+T58N+S63D,3.94 ND ND,3.94,3 of 9 (4.01)
V50I+S53H+R56I,0.91 1.07 1.33,1.10,3 of 9 (4.78)
S31T+S63C+V64E,4.03 ND ND,4.03,0 of 9
S35Y+A101H,ND ND ND,ND,2 of 9 (3.93)
Y60F+F105E+S107N,ND ND ND,ND,1 of 9 (3.68)
F27A+K65S+R100T,3.35 1.44 1.61,2.13,1 of 9 (3.48)
F27N+S53M+V64W,ND ND ND,ND,0 of 9
G26D+T28R+S63C,ND ND ND,ND,0 of 9
G33R+Y52T+F59G,ND ND ND,ND,0 of 9
G26P+T28E,3.24 2.28 2.57,2.70,1 of 9 (4.88)
F27I+Y32S+V50H,4.65 ND ND,4.65,3 of 9 (3.91)
L29V+S31C+S35M,6.03 ND ND,6.03,1 of 9 (4.47)
I34E+V50E+F59G,ND 3.52 ND,3.52,1 of 9 (2.67)
F27M+A101M+G103Y,ND ND ND,ND,1 of 9 (3.11)
I51V+S53V+T58H,ND ND ND,ND,0 of 9
T28H+I34Y+D106K,ND ND ND,ND,1 of 9 (4.59)
S53F+D54H+S63V,ND 4.09 ND,4.09,3 of 9 (5.20)
G26S+Y32M+I34L,ND ND ND,ND,0 of 9
R57Y+F59P+A102E,ND ND ND,ND,1 of 9 (4.54)
F59D+G61S+T104C,2.01 2.05 2.69,2.25,3 of 9 (4.71)
F27W+R100M,5.40 2.47 3.12,3.66,0 of 9
Y60L,2.88 2.97 2.96,2.94,7 of 9 (4.12)
V64H+A102G,ND ND ND,ND,0 of 9
N30V+G55Y+D106G,ND ND ND,ND,0 of 9
Y52G+D54K+R56M,ND 3.51 ND,3.51,0 of 9
I34G+A101W+F105P,ND ND ND,ND,1 of 9 (3.60)
L29R+G55R+A102L,ND ND ND,ND,0 of 9
T28P+Y32M+F59R,ND ND ND,ND,0 of 9
S35W+A102Y+D106I,ND ND ND,ND,0 of 9
I34V+K65P+A102L,ND ND ND,ND,1 of 9 (3.30)
I34R+S63F+A102E,ND ND ND,ND,2 of 9 (4.41)
G61M+S63Q+S107P,0.46 0.62 0.35,0.47,1 of 9 (3.49)
F59V+A101Q+D106Q,2.78 1.83 2.55,2.39,2 of 9 (4.53)
F59N+A102L+G103S,ND ND ND,ND,0 of 9
G26V+F27L+S63Y,ND 4.33 ND,4.33,2 of 9 (3.98)
S35V+V64E+R100W,ND ND ND,ND,0 of 9
S35V+V50R+F59S,ND ND ND,ND,1 of 9 (3.35)
T28F+S31F+G103I,ND ND ND,ND,1 of 9 (4.89)
S35E+V50E+G61R,3.49 ND ND,3.49,1 of 9 (3.76)
R56P+D62A+S63Y,ND 3.38 ND,3.38,4 of 9 (4.46)
N30L+A101H+G103Y,ND 4.08 ND,4.08,1 of 9 (3.82)
G26V+R100T+D106A,ND ND ND,ND,4 of 9 (3.97)
G26S+G55F+T58C,ND ND ND,ND,1 of 9 (3.00)
L29C+S31H+T58P,ND ND ND,ND,0 of 9

Reference: Engelhart et al. 2022, doi:10.1038/s41597-022-01779-4. File: FLAb, binding data.